According to publication PMC12171319, “3‐Oxabicyclo[3.1.1]heptane as an Isostere of meta‐Benzene” (Angewandte Chemie (International Ed. in English), 2025):

Conditions: both, human, pH 7.4

- kel: 0.092 min⁻¹
Structure (SMILES): O=C(O)Cc1ccccc1Nc1c(Cl)cccc1Cl [Diclofenac]
